# Data reported in PubChem BioAssay AID652257 (The Scripps Research Institute Molecular Screening Center, 2013).
# The chains behind the UniProt entries cited, without tags or fusion partners.
# UniProt Q99873, whole entry: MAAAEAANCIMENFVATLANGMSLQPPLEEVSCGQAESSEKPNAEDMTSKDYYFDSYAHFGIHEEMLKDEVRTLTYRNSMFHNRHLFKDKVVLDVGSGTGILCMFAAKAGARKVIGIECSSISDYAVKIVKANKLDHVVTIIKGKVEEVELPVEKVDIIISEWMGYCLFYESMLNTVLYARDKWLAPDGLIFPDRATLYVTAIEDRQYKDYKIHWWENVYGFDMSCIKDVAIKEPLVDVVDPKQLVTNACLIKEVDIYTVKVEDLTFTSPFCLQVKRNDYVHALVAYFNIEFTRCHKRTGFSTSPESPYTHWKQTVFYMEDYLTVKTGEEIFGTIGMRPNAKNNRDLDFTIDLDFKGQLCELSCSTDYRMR
# The list shows a part of the results, in another mix than the full data. Some tests of the compounds listed are not included; inactive here does not mean inactive elsewhere. The source made the active and inactive calls.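 The calls were made as follows: active = inhibition above about 21% made by adding two undisclosed values (limit read from the data); inactive = the rest.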
# Biological target: Protein arginine N-methyltransferase 1 (Homo sapiens) (UniProt Q99873)
# Test: human PRMT1 activity-probe blockers – biochemical, fluorescence polarization, primary screen (AID 652257)
# Conditions: recombinant PRMT1, activity-based probe fluorescence polarization; at 2.79 µM; stronger effect = higher value
row,Structure (SMILES),inhibition
1,O=C(OC1CN2CCC1CC2)C(CO)(c1ccccc1)c1ccccc1 (stereo unspecified),inactive: 3.96%
2,COc1ccc(Br)c(C(=O)NCC2(N3CCCCC3)CCCCC2)c1,inactive: 7.53%
3,C=C(C)C#CC(O)(C(=O)OC1CCN(C)CC1)c1ccccc1 (stereo unspecified),inactive: 3.98%
4,CN(C)c1cccc(C(=O)NCC2(N(C)C)CCCCC2)c1,inactive: -1.9%
5,O=C(OCCN1CCCC1)C(O)(c1ccccc1)c1ccccc1,inactive: 1.57%
6,CC(C)Oc1ccc(C(=O)NCC2(N(C)C)CCCCC2)cc1,inactive: 4.21%
7,CN(C)C1(CNC(=O)c2ccc(Br)cc2)CCCCC1,inactive: 1.15%
8,COc1cc(C(=O)NCC2(N(C)C)CCCCC2)c([N+](=O)[O-])cc1OC,inactive: 1.69%
9,COc1ccc(Cl)cc1C(=O)NCC1(N(C)C)CCCCC1,inactive: 14.9%
10,COc1cccc(C(=O)NCC2(N3CCCCC3)CCCCC2)c1,inactive: 1.54%
11,O=C(NCC1(N2CCCCC2)CCCCC1)c1cccc(Cl)c1,inactive: 0.6%
12,CN(C)c1ccc(C(=O)NCC2(N(C)C)CCCCC2)cc1,inactive: -5.73%
13,CN(C)C1CCCC1OC(=O)C(O)(c1ccccc1)c1ccccc1 (stereo unspecified),inactive: -2.16%
14,Cc1ccccc1C(=O)NCC1(N2CCCCC2)CCCCC1,inactive: -5.12%
15,O=C(NCC1(N2CCCCC2)CCCCC1)c1cc(F)c(F)cc1Cl,inactive: 0.12%
16,C=CCN1CCN(CCOC(=O)C(O)(c2ccccc2)c2ccccc2)CC1,inactive: -3.37%
17,O=C(NCC1(N2CCCCC2)CCCCC1)c1cccc(Br)c1,inactive: 0.66%
18,CCN1CCCC(OC(=O)C2(O)c3ccccc3C=Cc3ccccc32)C1 (stereo unspecified),inactive: 4.7%
19,Cc1cc(C(=O)NCC2(N3CCCCC3)CCCCC2)ccc1[N+](=O)[O-],inactive: -0.08%
20,COc1ccc(C(=O)NCC2(N(C)C)CCCCC2)cc1,inactive: -3.31%
21,O=C(NCC1(N2CCCCC2)CCCCC1)c1cc([N+](=O)[O-])ccc1Cl,inactive: -0.28%
22,CN1[C@@H]2CC[C@H]1CC(OC(=O)C(O)(c1ccccc1)c1ccccc1)C2 (stereo partly specified),inactive: -1.88%
23,CC(C)N1C(=O)CC2(CCN(CCOC(=O)C(O)(c3ccccc3)c3ccccc3)CC2)C1=O,inactive: 1.59%
24,COc1cc(SC)ccc1C(=O)NCC1(N(C)C)CCCCC1,inactive: -2.07%
25,CCN(CC)CC(C)C(C)OC(=O)C(O)(c1ccccc1)c1ccccc1 (stereo unspecified),inactive: -2.32%
26,Cc1ccc(C(=O)NCC2(N3CCCCC3)CCCCC2)cc1,inactive: 0.8%
